One molecule from patent US20200170258A1 can be followed below.

This assay has as its target Flagellin-sensing 3 (FLS3) of tomato (tomato). Description: cell-based or functional assay.

Take EIHEMLQRMRELAVQAANGTYSDKDKKA (modifications not checked) [A.sp.FlgII-28]: the ROS activity in tomato leaf tissue, Average RLU value, 5 nM Flg polypeptide was 33000 RLU.
